Earlier results in patent US8273715B2, “Methods of treating fragile X syndrome” (Seaside Therapeutics, Inc., priority 2006, dated 2012).

Test system: subjects with autism
Details: cited from earlier work

In the case of Cc1nc2n(c(=O)c1CCN1CCC(c3noc4cc(F)ccc34)CC1)CCCC2 [risperidone, 3-[2-[4-(6-fluoro-1,2-benzisoxazol-3-yl)piperidino]ethyl]-2-methyl-6,7,8,9-tetrahydro-4H-pyrido[1,2-α]pyrimidin-4-one], the “side effect: weight gain” value (over 8 weeks) is given as 2.7 kg, the “side effect: dizziness” value (subjects with autism) is given as 16% and the “side effect: drooling” value (subjects with autism) is given as 27%. The “side effect: drowsiness” value (subjects with autism) was 49%, the “side effect: fatigue” value (subjects with autism) was 59% and the “side effect: increased appetite” value (subjects with autism) was 73%.
